From ChEMBL document CHEMBL1135915, “Structure-activity relationships in 1,4-benzodioxan-related compounds. 7. Selectivity of 4-phenylchroman analogues for alpha(1)-adrenoreceptor subtypes” (J Med Chem, 2002)

Target: T1, Alpha-1A adrenergic receptor (Homo sapiens, UniProt P35348)
T1 sequence (P35348 whole entry): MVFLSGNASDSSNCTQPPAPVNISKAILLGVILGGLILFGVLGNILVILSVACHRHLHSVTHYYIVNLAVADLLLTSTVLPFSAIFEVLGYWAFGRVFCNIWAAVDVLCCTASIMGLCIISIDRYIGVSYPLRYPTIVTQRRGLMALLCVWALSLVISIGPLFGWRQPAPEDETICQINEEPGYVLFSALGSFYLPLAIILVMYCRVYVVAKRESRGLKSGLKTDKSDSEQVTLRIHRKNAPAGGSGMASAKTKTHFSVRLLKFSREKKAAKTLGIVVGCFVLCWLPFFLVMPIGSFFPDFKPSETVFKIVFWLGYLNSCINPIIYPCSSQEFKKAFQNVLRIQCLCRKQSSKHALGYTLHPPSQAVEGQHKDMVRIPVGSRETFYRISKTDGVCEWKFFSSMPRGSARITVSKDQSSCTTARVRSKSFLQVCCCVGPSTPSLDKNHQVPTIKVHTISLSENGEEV
Test: Affinity constant on CHO cells expressing Human recombinant Alpha-1A adrenergic receptor
Format: cell-based
Settings: read-out: pA2 (converted)

Kb: 380 nM
Structure (SMILES): COc1ccccc1N1CCN(CCN2C(=O)CC3(CCCC3)CC2=O)CC1 [BMY-7378]
